FN deposit inh: fibronectin deposition inhibition. AH1F fibroblasts, Alexa488-fibronectin deposition fluorescence, overnight. inhibition, % at 12.6 µM. 350,000 compounds, 0.086% hits. AID 743247;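 active = mean inhibition across replicates of 30% or more, regardless of how many single replicates reach that level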
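Assay system: AH1F fibroblast monolayer, labelled fibronectin deposition. Amount: 10000 cells per well. Also added: labelled fibronectin 24 nM. Compound: single-point pinned compound. Incubation: cell attachment 1 h, compound and FN exposure overnight. Detection: fluorescence after three HBSS washes, excitation 485 nm, emission 525 nm. Read-out: inhibition of fibronectin deposition signal.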
Env fusion inh: HIV envelope-mediated fusion inhibition | HeLa-JRFL Env/CEM21 cell fusion, luciferase | inhibition, % at 12.3 µM | 360,000 compounds, 1.1% hits | AID 651610;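 active = mean replicate inhibition score of at least 50 and every replicate individually at or above 50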
Cneo AK release: causes C. neoformans cell lysis | lysis activity, % at 15 µM | 360,000 compounds, 0.2% hits | adenylate kinase release luminescence, 4 h; normalised: neutral wells 0, clomiphene wells 100;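 active = mean lysis activity across replicates of at least 80%, whatever share of replicates individually reach that level; inactive = mean lysis activity below 80%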
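Material: C. neoformans cells | Amount: Yeast cell density of 5 × 10^6 cells/mL | Medium: Fresh YPD growth medium | Dosing: Single dose | Times: Static 4 h at 37 °C with compound, 1 h detection | Detection: AK luminescence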
Yeast UUG start: modulators of start codon recognition fidelity in yeast; AID 602363; activity score, % at 18.7 µM; S. cerevisiae UUG-firefly luciferase reporter, luminescence/redox ratio; actives 0.13% (n = 350,000);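 active = replicate mean at a twofold rise or more, about +100% in these data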;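 note: firefly luciferase made from a UUG start codon reports start codon fidelity; reporter light over untreated wells divided by growth signal over untreated wells; some hits fall short of that in this replicate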
PGC1a acetyl inh: modulators of PGC1a acetylation; AID 651687; 350,000 compounds, 0.17% hits; inhibition, % at 15.6 µM; U2OS PGC1a acetylation, AlphaScreen anti-acetyl-lysine; with virally co-expressed GCN5 acetyltransferase;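 active = every replicate shows inhibition of at least 40%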
miR122 inh: inhibitors of miR-122 in Huh7 cells; 340,000 compounds, 0.3% hits; activation (reporter increase), % at 12.5 µM; AID 602342; Huh7 miR-122 Renilla luciferase sensor, 48 h; neutral wells = 0, positive control = 100;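 active = mean replicate activation score at least 90 and every replicate individually at or above 90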;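 also: higher luciferase means less miR-122 activity so hits act as miR-122 inhibitors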
Each line names hits and unclear results; the compound was inactive in the other large screens; [ ] = another dose, or the depositor's remark. Compounds with a hit are over-represented: about 1.5% of the library has one in this group of screens.

S=C(NCCc1ccccc1)NCc1cccc(Cl)c1	none (no result: FN deposit inh, Env fusion inh, PGC1a acetyl inh)
Fc1ccccc1NC(=S)NCCc1cccc(Cl)c1	Cneo AK release 97
O=C1C=C(NCc2ccc(Cl)c(Cl)c2)CC1	none (no result: FN deposit inh, Env fusion inh, Cneo AK release, Yeast UUG start)
CC1(C)CC(=O)C=C(NCc2ccc(Cl)c(Cl)c2)C1	Env fusion inh 60 (no result: Cneo AK release, Yeast UUG start, PGC1a acetyl inh, miR122 inh)
COc1cc2c3c([nH]c2cc1F)C(=O)NCC3	Env fusion inh 59 (no result: PGC1a acetyl inh, miR122 inh)
COc1ccc(S(=O)(=O)Nc2c3ccccc3nc(=O)n2-c2ccccc2)cc1	none (no result: FN deposit inh, Env fusion inh)
CN(c1cc2c(c3c1ccn3C)C1CCC2C1)C1CCCCC1 (stereo not given)	PGC1a acetyl inh 78
CCN(C)c1cc2c(c3c1ccn3C)C1CCC2C1 (stereo not given)	none (no result: Env fusion inh)
COc1ccc(S(=O)(=O)Nc2cc3c4c(oc3c3ccccc23)CCCC4=O)cc1	miR122 inh 127 (no result: FN deposit inh, Env fusion inh)
COc1ccc(S(=O)(=O)Nc2cc3c4c(oc3c3ccccc23)CC(C)(C)CC4=O)cc1	none (no result: PGC1a acetyl inh)
Cc1c(C(=O)NCc2ccc(F)cc2)c(-c2ccccc2)nn1-c1ccccc1	none
Cc1nn(Cc2c(F)c(F)c(F)c(F)c2F)c(C)c1NC(=O)c1ccc(COc2ccccc2Cl)cc1	none
Cc1nn(Cc2c(F)c(F)c(F)c(F)c2F)c(C)c1NC(=O)c1ccc(COc2ccc(F)cc2)o1	Env fusion inh 67
Cc1nn(Cc2c(F)c(F)c(F)c(F)c2F)c(C)c1NC(=O)c1c(-c2ccccc2)nn(-c2ccccc2)c1C	Env fusion inh 95
Cc1nn(Cc2c(F)c(F)c(F)c(F)c2F)c(C)c1NC(=O)c1ccc(COc2ccccc2Cl)o1	Env fusion inh 66 (no result: Cneo AK release, Yeast UUG start)
COC(=O)c1cc(S(=O)(=O)NCC2CCN(Cc3ccc(Cl)cc3)CC2)c[nH]1	none
O=P(OC1CCCCC1)(OC1CCCCC1)C(O)c1c(Cl)cccc1Cl (stereo not given)	Env fusion inh 59
Cc1ccc(C(O)P(=O)(OC2CCCCC2)OC2CCCCC2)cc1 (stereo not given)	none
COc1ccccc1C(O)P(=O)(OC1CCCCC1)OC1CCCCC1 (stereo not given)	none (no result: Cneo AK release, Yeast UUG start, miR122 inh)
O=P(OC1CCCCC1)(OC1CCCCC1)C(O)c1ccc(Cl)cc1Cl (stereo not given)	Env fusion inh 61
CC1(C)CC(=O)C(C=Nc2ccc(O)c(N=CC3=C(O)CC(C)(C)CC3=O)c2)=C(O)C1	none (no result: Cneo AK release, Yeast UUG start, PGC1a acetyl inh, miR122 inh)
C[C@H]1CN([C@@H](C)CO)S(=O)(=O)c2ccc(-c3cncnc3)cc2O[C@H]1CN(C)C(=O)C1CCC1	none (no result: FN deposit inh)
C[C@@H]1CCCCO[C@@H](CN(C)C(=O)c2ccncc2)[C@H](C)CN([C@@H](C)CO)C(=O)c2cc(NC(=O)NC3CCCCC3)ccc2O1	none (no result: FN deposit inh)
CCOc1ccc(NC(=O)c2ccc(F)c(S(=O)(=O)N3CCN(c4ccccn4)CC3)c2)cc1	Env fusion inh 57 (no result: Cneo AK release, Yeast UUG start, PGC1a acetyl inh, miR122 inh)
CCOc1ccc(NC(=O)c2ccc(F)c(S(=O)(=O)N3CCCC3)c2)cc1	none
O=C(Cc1ccccc1)Nc1ncnc2c1C(c1ccccc1)c1c(ccc3ccccc13)O2 (stereo not given)	Env fusion inh 68 (no result: PGC1a acetyl inh)
CCc1ccc(NC(=O)CSc2nc3ccsc3c(=O)n2CCC(=O)O)cc1	none
CC(C)c1ccc(NC(=O)CSc2nc3ccsc3c(=O)n2Cc2ccc(C(=O)O)cc2)cc1	PGC1a acetyl inh 59
Cc1cc(N)n(-c2nc3ccccc3s2)n1	none (no result: Cneo AK release, Yeast UUG start, PGC1a acetyl inh, miR122 inh)
C[C@H]1CN([C@@H](C)CO)C(=O)Cc2cc(NC(=O)CCN3CCOCC3)ccc2O[C@H]1CN(C)C(=O)Nc1ccc(C(F)(F)F)cc1	none
Cc1onc(-c2c(F)cccc2Cl)c1C(=O)OCC(=O)NC(c1ccccc1)c1ccccc1	Env fusion inh 93 (no result: FN deposit inh)
CCC(C(=O)OCC(=O)c1c(N)n(CC(C)C)c(=O)n(C)c1=O)c1ccccc1 (stereo not given)	Env fusion inh 60
Cc1csc(SCC(=O)c2c(N)n(CC(C)C)c(=O)n(C)c2=O)n1	Env fusion inh 90
Cc1ccc(-n2nnnc2SCC(=O)c2c(N)n(CC(C)C)c(=O)n(C)c2=O)cc1	Env fusion inh 59 (no result: FN deposit inh)
CC(C)Cn1c(N)c(C(=O)CSc2nc3ccccc3n2C)c(=O)n(C)c1=O	none (no result: FN deposit inh)
COCCNC(=S)N(Cc1cc2cc(C)ccc2n2nnnc12)C1CCCC1	Env fusion inh 60
COCCN(Cc1cc2cc(C)ccc2n2nnnc12)C(=S)Nc1ccc(C)cc1	none (no result: Cneo AK release, Yeast UUG start)
Cc1ccc(-n2cccc2C(=S)N=P(N(C)C)(N(C)C)N(C)C)cc1	PGC1a acetyl inh 85
CCCCN1CC(N2CCN(C(=O)c3ccco3)CC2)CS1(=O)=O (stereo not given)	none
CN(C)c1ccc(-c2noc(C3CCN(S(=O)(=O)c4cccc(Cl)c4)CC3)n2)cc1	Env fusion inh 56 (no result: FN deposit inh, Cneo AK release, Yeast UUG start, PGC1a acetyl inh, miR122 inh)
Cc1cc(C)cc(NC2=NC3(CCCCC3)N=C(N)N2)c1	miR122 inh 109 (no result: FN deposit inh, Env fusion inh)
NC1=NC2(CCCCC2)N=C(Nc2ccc(F)cc2F)N1	none
CCC1=NN=C(c2ccc(F)cc2)C(c2c[nH]c3ccccc23)N1O (stereo not given)	Env fusion inh 103
CN1CCc2c(sc(N)c2C(=O)c2ccc(Cl)cc2)C1	Cneo AK release 164
COc1ccc(C(=O)c2c(N)sc3c2CCN(C(=O)OC(C)(C)C)C3)cc1	none
Cc1noc(C)c1S(=O)(=O)N(C)C[C@H]1OCCCC[C@@H](C)Oc2ccc(NC(=O)CCCCCC(=O)Nc3ccccc3N)cc2C(=O)N([C@@H](C)CO)C[C@@H]1C	Cneo AK release 97 (no result: FN deposit inh)
Cc1noc(C)c1S(=O)(=O)N(C)C[C@H]1OCCCC[C@H](C)Oc2ccc(NC(=O)Nc3ccccc3)cc2C(=O)N([C@@H](C)CO)C[C@@H]1C	Env fusion inh 65[16.7 µM]
COc1ccc(NC(=O)Nc2ccc3c(c2)C(=O)N([C@@H](C)CO)C[C@H](C)[C@@H](CN(C)S(=O)(=O)c2c(C)noc2C)OCCCC[C@H](C)O3)cc1	Env fusion inh 68[16.7 µM] (no result: FN deposit inh)
Cc1ccc(S(=O)(=O)N(C)C[C@H]2OCCCC[C@@H](C)Oc3ccc(NC(=O)CCCCCC(=O)Nc4ccccc4N)cc3C(=O)N([C@H](C)CO)C[C@@H]2C)cc1	none (no result: Env fusion inh, Cneo AK release, Yeast UUG start, miR122 inh)
C=CCCC(=O)N(C)CCO	none (no result: PGC1a acetyl inh, miR122 inh)
O=C(c1ccc([N+](=O)[O-])cc1[N+](=O)[O-])N1CCc2ccccc21	none
Cc1ccc(C(=O)OCC(=O)NCCc2ccc(F)cc2)cc1S(=O)(=O)N1CCOCC1	none (no result: Env fusion inh, PGC1a acetyl inh, miR122 inh)
CCCCN(C=O)c1c(CC)nc2c(OCc3cc(Cl)cc(Cl)c3)cccn12	none
Cc1cc2nc(-c3ccc[nH]c3=O)[nH]c2cc1C	none (no result: PGC1a acetyl inh)
O=C(C[C@H]1CC[C@H]2[C@@H](COC[C@H](O)CN2C(=O)Nc2ccc(Cl)c(Cl)c2)O1)NCc1ccncc1	Env fusion inh 70[16.7 µM] (no result: Yeast UUG start)
